Assay: Selectivity ratio of IC50 for Plasmodium falciparum Dd2 to IC50 for Plasmodium falciparum 3D7
Assay type: functional

C[C@H]1[C@H](OC(=O)CCC(=O)O)O[C@@H]2O[C@@]3(C)CC[C@H]4[C@H](C)CC[C@@H]1[C@@]24OO3 [ARTESUNATE]
Ratio IC50: 0.82

Source: ChEMBL document CHEMBL4043138, “Synthesis of antimalarial amide analogues based on the plant serrulatane diterpenoid 3,7,8-trihydroxyserrulat-14-en-19-oic acid” (Bioorg Med Chem Lett, 2017)
